Results taken from publication doi:10.1101/2024.02.23.581731v1 (biorxiv, 2024).

Chains of the proteins cited; added tags and fusions are not shown. Residues count along the entry.
UniProt O70212, 20-490: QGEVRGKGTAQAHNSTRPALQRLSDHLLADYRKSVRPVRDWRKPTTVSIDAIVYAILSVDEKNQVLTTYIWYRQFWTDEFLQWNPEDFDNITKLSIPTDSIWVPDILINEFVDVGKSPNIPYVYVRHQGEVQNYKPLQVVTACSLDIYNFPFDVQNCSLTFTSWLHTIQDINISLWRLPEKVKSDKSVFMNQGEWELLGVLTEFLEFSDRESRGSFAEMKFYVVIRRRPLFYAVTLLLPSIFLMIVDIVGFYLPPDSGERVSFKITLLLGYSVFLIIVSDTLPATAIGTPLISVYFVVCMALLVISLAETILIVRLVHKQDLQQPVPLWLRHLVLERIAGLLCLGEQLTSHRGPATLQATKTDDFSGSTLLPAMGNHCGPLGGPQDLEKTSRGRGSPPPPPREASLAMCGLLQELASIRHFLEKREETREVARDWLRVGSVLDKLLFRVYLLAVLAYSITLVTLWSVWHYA
UniProt P35563, 24-483: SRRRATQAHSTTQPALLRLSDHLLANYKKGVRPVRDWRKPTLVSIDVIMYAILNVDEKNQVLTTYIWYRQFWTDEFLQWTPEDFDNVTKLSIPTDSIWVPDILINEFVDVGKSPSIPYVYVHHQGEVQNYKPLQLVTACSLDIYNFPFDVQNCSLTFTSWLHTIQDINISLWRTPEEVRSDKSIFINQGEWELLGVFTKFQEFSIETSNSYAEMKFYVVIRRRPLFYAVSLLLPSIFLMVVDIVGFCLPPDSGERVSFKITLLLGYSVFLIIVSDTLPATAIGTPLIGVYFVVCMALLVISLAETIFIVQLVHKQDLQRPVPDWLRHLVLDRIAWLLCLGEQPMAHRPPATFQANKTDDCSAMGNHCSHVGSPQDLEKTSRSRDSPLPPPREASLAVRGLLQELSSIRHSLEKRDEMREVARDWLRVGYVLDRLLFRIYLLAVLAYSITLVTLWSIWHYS
UniProt P35563, 24-483 I207V: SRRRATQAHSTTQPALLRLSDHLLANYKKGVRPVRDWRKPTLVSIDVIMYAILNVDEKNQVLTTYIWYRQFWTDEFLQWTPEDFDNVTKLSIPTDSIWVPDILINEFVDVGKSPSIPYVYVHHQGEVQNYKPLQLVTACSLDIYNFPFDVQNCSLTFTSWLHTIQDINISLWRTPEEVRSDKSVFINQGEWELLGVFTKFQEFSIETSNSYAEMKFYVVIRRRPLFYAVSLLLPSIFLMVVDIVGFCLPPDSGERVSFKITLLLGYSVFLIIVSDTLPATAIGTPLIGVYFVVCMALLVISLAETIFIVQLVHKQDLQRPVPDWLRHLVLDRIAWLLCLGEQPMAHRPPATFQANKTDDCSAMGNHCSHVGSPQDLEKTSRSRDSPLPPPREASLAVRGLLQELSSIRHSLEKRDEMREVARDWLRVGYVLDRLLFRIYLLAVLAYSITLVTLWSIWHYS

What was measured:
Test in all cases: FLIPR Blue membrane potential assay, activation
Format in all cases: cell-based
gp5-HT3AR = gp5-HT3AR (Cavia porcellus, UniProt O70212)
r5-HT3AR [1] = molecular target: r5-HT3AR (Rattus norvegicus, UniProt P35563)
r5-HT3AR [2] = molecular target: r5-HT3AR (Rattus norvegicus, UniProt P35563, I207V)

NCCc1c[nH]c2ccc(O)cc12 [serotonin]
EC50 (gp5-HT3AR): 255 nM
EC50 (r5-HT3AR [1]): 1660 nM
EC50 (r5-HT3AR [2]): 778 nM
